Source: patent US12103919B2, “3-(5-oxy)-1-oxoisoindolin-2-yl)piperidine-2,6-dione derivatives and uses thereof” (NOVARTIS AG, priority 2021, dated 2024)

Sequences of proteins named here, by UniProt entry; tags and fusion partners are left off.
UniProt O95785, whole entry: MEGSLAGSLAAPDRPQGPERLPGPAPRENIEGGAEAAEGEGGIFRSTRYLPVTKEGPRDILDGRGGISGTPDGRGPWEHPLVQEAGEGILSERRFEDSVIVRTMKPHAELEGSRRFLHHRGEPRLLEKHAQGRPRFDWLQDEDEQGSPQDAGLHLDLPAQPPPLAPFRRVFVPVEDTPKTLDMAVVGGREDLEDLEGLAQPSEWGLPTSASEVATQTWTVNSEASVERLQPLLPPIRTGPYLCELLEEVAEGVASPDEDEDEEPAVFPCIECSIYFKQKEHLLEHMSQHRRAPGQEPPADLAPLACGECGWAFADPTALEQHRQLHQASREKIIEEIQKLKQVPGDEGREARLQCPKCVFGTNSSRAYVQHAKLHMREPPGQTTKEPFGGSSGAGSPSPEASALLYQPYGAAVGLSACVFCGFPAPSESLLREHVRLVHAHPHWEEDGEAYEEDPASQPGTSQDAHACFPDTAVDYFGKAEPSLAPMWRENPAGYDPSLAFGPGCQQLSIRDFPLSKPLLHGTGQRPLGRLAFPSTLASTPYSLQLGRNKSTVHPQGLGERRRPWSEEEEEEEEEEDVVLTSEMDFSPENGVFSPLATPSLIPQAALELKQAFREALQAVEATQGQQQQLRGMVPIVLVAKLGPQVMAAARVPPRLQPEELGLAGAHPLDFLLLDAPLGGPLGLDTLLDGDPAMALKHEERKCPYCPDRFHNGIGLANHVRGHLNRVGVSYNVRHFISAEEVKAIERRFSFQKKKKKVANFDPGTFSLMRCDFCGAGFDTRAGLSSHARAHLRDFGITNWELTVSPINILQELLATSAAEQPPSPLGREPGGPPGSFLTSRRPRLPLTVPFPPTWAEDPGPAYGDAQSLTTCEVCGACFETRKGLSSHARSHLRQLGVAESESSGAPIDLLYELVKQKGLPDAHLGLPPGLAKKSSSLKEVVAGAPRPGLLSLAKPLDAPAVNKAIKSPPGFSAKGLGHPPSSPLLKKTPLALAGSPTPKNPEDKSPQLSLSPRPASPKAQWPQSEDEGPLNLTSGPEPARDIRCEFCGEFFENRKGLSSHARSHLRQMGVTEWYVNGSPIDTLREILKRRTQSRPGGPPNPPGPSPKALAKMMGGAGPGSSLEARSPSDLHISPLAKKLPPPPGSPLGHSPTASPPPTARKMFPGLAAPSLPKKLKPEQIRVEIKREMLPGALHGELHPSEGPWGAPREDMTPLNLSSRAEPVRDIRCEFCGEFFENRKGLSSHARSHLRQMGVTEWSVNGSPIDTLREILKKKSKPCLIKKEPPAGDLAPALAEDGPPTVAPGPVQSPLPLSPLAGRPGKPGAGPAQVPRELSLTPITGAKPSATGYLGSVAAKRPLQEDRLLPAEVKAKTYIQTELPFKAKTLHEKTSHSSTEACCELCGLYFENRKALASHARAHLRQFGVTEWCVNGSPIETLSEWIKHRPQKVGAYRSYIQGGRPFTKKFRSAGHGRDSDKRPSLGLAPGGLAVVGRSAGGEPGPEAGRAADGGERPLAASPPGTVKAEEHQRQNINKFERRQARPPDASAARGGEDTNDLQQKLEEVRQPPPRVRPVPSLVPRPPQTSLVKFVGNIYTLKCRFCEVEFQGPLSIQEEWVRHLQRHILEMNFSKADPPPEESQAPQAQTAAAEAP
UniProt Q96SW2, whole entry: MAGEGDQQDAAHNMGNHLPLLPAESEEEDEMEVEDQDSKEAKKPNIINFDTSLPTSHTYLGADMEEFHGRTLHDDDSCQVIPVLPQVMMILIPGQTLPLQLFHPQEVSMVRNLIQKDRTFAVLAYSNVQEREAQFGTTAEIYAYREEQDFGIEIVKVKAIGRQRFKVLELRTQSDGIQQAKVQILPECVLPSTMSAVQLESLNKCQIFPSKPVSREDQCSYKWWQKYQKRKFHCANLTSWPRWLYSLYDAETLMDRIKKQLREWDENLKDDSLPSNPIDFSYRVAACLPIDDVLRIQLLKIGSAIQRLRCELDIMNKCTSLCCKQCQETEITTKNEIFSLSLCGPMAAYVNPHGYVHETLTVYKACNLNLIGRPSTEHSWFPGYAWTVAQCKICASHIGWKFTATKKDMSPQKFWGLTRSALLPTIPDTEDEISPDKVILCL
UniProt Q16531, whole entry partner: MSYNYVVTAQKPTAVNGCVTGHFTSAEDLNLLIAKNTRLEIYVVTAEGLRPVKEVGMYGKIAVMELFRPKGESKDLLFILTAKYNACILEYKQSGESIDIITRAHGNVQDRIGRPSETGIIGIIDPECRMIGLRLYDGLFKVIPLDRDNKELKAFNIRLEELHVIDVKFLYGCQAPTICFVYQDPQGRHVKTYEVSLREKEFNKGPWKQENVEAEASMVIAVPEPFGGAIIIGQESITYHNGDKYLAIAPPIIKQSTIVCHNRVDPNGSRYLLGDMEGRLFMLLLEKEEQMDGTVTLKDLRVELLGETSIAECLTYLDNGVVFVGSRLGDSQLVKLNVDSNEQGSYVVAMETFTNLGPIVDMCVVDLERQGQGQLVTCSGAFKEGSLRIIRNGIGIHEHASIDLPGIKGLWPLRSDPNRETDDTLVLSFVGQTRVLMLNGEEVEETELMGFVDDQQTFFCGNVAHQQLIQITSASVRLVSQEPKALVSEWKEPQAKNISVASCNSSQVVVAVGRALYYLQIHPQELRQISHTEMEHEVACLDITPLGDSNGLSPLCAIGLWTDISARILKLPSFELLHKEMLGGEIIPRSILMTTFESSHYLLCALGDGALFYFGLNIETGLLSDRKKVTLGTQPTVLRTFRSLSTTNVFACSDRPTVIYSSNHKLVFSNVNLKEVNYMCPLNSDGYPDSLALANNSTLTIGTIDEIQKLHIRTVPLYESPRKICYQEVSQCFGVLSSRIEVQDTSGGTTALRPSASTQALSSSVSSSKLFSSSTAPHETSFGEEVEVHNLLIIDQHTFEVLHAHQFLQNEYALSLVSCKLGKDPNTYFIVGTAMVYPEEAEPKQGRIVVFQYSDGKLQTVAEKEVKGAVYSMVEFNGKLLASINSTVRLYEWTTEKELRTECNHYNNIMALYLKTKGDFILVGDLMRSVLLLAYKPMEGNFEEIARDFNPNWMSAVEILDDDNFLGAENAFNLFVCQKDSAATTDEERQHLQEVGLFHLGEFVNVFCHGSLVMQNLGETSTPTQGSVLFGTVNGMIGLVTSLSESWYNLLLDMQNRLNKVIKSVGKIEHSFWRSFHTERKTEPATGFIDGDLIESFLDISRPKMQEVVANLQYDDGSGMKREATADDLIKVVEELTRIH

Target: WIZ (Homo sapiens, UniProt O95785+Q96SW2)
Test: Quantification of WIZ protein levels in HiBit tag fusion protein assay (293T cells)
Format: cell-based
Conditions: for WIZ Amax: DMSO-normalized, curve-fitted percentage of WIZ-HiBit remaining at 25 uM; for AC50: read-out: WIZ AC50, WIZ HiBit assay in 293T cells, about 18 hours, 10-point 5-fold dilution, top 25 μM; for % degradation of WIZ (100 − Amax): at 25 uM

| WIZ Amax [%] | AC50 [nM] | % degradation of WIZ (100 − Amax) [%] | SMILES |
| --- | --- | --- | --- |
| 110.99 | > 25000 |  | CCN1CCC(C)C(Oc2ccc3c(c2)CN(C2CCC(=O)NC2=O)C3=O)C1 (single isomer, unassigned) [46D] |
| 48.09 | 51 | 51.91 | CCN1CC(C)CC(Oc2ccc3c(c2)CN(C2CCC(=O)NC2=O)C3=O)C1 (single isomer, unassigned) [45D] |
| 105.03 | > 25000 |  | CCN1CCC(C)C(Oc2ccc3c(c2)CN(C2CCC(=O)NC2=O)C3=O)C1 (single isomer, unassigned) [46C] |
| 66.38 | 49 | 33.62 | CCN1CC(C)CC(Oc2ccc3c(c2)CN(C2CCC(=O)NC2=O)C3=O)C1 (single isomer, unassigned) [45C] |
| 109.66 | > 25000 |  | CCN1CCC(C)C(Oc2ccc3c(c2)CN(C2CCC(=O)NC2=O)C3=O)C1 (single isomer, unassigned) [46A] |
| 48.89 | 40 | 51.11 | CCN1CC(C)CC(Oc2ccc3c(c2)CN(C2CCC(=O)NC2=O)C3=O)C1 (single isomer, unassigned) [45A] |
| 110.99 | > 25000 |  | CCN1CCC(C)C(Oc2ccc3c(c2)CN(C2CCC(=O)NC2=O)C3=O)C1 (single isomer, unassigned) [46B] |
| 67.92 | 44 | 32.08 | CCN1CC(C)CC(Oc2ccc3c(c2)CN(C2CCC(=O)NC2=O)C3=O)C1 (single isomer, unassigned) [45B] |

Continued, compound first:

| SMILES | WIZ Amax [%] | AC50 [nM] | % degradation of WIZ (100 − Amax) [%] |
| --- | --- | --- | --- |
| CCN1CCC(C)C(Oc2ccc3c(c2)CN(C2CCC(=O)NC2=O)C3=O)C1 (single isomer, unassigned) [35A] | 60.81 | 8.6 | 39.19 |
| CCN1CCC(C)C(Oc2ccc3c(c2)CN(C2CCC(=O)NC2=O)C3=O)C1 (single isomer, unassigned) [35C] | 69.59 | 11 | 30.41 |
| CCN1CCC(C)C(Oc2ccc3c(c2)CN(C2CCC(=O)NC2=O)C3=O)C1 (single isomer, unassigned) [35B] | 67.54 | 6.1 | 32.46 |
| CCN1CCC(C)C(Oc2ccc3c(c2)CN(C2CCC(=O)NC2=O)C3=O)C1 (single isomer, unassigned) [35D] | 62.63 | 6.3 | 37.37 |
